Our source for the Emax values is ChEMBL document CHEMBL5380833, “Discovery of Potent and Highly Selective Interleukin-2-Inducible T-Cell Kinase Degraders with In Vivo Activity” (J Med Chem, 2023).

Protein sequences, listed by entry. Tags and fused reporters are not part of them. Lines headed by an entry give the natural chain unless they say otherwise; changes in a name come on top.
UniProt Q08881: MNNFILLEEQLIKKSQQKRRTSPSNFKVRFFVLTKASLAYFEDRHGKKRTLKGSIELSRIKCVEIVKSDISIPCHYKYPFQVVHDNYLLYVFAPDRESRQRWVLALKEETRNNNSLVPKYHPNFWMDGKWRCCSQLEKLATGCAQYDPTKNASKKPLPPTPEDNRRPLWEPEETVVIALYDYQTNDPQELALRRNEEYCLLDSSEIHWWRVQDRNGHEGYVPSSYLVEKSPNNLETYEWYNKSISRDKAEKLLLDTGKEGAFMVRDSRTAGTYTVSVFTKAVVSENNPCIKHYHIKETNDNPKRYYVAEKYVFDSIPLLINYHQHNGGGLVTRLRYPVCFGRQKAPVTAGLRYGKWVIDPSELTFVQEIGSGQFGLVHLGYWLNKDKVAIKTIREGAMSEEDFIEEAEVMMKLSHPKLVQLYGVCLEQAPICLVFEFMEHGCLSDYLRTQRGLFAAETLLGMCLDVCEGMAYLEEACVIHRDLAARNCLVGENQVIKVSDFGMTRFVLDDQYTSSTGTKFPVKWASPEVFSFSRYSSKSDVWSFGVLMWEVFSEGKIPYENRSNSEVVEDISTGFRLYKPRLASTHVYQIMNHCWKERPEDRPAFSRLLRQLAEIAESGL
UniProt Q96SW2: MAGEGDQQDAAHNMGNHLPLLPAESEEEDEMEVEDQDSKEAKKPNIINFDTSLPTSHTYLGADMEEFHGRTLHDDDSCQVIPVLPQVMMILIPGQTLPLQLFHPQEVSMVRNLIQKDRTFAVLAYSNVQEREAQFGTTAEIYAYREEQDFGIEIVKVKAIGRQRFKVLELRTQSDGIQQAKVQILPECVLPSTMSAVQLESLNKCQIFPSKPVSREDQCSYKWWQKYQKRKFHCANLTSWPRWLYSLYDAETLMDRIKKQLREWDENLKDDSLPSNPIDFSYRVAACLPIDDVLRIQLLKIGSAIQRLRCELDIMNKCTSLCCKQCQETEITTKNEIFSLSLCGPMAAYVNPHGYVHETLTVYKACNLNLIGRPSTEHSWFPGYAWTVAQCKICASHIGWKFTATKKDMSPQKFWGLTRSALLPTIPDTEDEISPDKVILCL

The assay addresses Protein cereblon/Tyrosine-protein kinase ITK/TSK (Homo sapiens, UniProt Q08881+Q96SW2). Kind of assay: PROTAC activity at CRBN/ITK in human Jurkat cells assessed as maximum degradation at 0.01 to 10 uM by Western blot analysis relative to control. The assay is classed as cell-based. As to conditions: dose 0.01-10 µM.

Structures are written as SMILES. Active and inactive are the calls of the source. The rule behind the calls is not given here.

Regarding `CN(CCCCCC(=O)Nc1ccc2c(c1)C(=O)N(C1CCC(=O)N(C)C1=O)C2=O)CC[C@@H](c1ccccc1)n1cc(NC(=O)c2n[nH]c3c2CCC(C)(C)C3)cn1` (stereo partly specified), the Emax entry was “inactive”.
